Earlier results, collected in PMC10121800.

The chains behind the UniProt entries cited, without tags or fusion partners. Where a name states a change or a piece, a line headed by the entry shows the natural chain unless it says otherwise.
UniProt Q96P20, whole entry: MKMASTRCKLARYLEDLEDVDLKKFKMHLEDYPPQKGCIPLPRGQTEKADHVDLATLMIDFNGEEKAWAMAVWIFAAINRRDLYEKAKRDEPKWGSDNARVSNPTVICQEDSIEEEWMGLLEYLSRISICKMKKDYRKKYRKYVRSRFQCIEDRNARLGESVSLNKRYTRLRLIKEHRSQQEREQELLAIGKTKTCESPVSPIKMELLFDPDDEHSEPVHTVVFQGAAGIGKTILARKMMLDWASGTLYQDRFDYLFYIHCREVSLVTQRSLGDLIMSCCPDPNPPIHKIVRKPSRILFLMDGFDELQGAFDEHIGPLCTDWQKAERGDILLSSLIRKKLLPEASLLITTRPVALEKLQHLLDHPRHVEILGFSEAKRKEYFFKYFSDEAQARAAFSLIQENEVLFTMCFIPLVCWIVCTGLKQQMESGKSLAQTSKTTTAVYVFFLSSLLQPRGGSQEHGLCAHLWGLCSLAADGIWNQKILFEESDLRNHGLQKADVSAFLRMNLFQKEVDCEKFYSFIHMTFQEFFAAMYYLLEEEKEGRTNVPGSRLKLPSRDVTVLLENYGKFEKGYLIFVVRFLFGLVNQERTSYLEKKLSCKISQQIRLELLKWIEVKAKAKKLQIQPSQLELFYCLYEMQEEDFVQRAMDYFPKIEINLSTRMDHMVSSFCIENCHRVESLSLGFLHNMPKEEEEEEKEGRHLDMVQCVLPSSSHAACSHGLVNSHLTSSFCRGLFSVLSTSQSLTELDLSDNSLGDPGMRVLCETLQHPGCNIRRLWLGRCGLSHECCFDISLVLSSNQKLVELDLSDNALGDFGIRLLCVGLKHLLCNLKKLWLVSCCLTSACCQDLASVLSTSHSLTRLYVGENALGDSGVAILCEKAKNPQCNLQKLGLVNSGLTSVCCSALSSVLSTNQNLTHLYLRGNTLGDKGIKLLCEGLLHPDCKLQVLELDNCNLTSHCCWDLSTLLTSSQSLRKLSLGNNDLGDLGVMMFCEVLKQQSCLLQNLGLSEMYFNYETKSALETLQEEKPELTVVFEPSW
UniProt Q8TDX7: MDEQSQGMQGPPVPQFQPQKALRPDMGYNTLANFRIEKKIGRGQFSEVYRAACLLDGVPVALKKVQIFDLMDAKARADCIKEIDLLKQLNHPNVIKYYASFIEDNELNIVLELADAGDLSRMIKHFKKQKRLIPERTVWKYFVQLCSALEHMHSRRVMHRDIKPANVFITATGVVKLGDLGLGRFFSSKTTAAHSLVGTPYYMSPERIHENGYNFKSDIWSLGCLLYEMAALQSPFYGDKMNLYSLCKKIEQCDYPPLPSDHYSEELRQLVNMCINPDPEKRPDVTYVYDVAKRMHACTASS

Target: NLRP3 (Homo sapiens) (UniProt Q96P20)

Kd: 78.9 nM
Substance: NEK7 (from UniProt Q8TDX7)
